# Reference: ChEMBL document CHEMBL1136167, “Prediction of hERG potassium channel affinity by traditional and hologram qSAR methods” (Bioorg Med Chem Lett, 2003)
# Protein sequences, listed by entry. Tags and fused reporters are not part of them. Lines headed by an entry give the natural chain unless they say otherwise; changes in a name come on top.
# UniProt Q12809: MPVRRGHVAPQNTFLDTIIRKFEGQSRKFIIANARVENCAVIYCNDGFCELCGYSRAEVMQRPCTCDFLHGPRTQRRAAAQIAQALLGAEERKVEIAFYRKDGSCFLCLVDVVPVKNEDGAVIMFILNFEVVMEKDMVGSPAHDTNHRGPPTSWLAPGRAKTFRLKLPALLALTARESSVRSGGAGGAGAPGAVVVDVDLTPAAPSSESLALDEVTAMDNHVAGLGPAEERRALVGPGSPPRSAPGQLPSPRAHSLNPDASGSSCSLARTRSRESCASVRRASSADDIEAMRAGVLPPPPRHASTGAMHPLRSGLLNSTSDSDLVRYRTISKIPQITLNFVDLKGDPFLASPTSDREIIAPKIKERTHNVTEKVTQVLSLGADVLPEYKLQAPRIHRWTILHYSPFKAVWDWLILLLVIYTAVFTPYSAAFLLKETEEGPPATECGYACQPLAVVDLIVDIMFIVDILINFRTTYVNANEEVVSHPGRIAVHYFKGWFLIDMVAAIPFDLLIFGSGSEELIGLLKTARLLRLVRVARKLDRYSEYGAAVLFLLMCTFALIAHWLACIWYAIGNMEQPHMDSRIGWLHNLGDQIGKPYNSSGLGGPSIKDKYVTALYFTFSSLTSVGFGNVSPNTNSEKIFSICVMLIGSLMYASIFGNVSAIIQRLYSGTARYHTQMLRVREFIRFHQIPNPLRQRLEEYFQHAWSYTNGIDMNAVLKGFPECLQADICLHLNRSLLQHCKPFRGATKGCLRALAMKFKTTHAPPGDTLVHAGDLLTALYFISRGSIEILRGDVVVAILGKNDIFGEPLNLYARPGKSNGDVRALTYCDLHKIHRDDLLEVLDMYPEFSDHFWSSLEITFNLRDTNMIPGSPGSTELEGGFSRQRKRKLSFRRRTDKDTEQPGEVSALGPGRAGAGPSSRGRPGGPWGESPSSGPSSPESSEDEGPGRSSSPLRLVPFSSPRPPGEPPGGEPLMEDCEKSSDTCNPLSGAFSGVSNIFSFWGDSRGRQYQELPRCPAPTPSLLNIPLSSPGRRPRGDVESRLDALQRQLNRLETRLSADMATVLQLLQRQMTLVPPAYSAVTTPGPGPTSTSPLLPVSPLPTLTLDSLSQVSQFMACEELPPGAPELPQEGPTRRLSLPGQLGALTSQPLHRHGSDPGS
# Molecular target: Voltage-gated inwardly rectifying potassium channel KCNH2 (Homo sapiens, UniProt Q12809)
row,Structure (SMILES),IC50 [nM]
1,O=C1Cc2cc(CCN3CCN(c4nsc5ccccc45)CC3)c(Cl)cc2N1 [ZIPRASIDONE HYDROCHLORIDE],120
2,Cc1nccn1CC1CCc2c(c3ccccc3n2C)C1=O (configuration not stated) [ONDANSETRON],813

# Where a name gives a salt, the structure may show the parent alone.
